Molecular target: GSPT1 (Homo sapiens, UniProt P15170+Q96SW2)
Assay: GSPT1 degradation immunofluorescence assay in CAL-51 cells
Settings: read-out: Activity for GSPT1 degradation (DC50 code), 6 hours treatment, compounds 1 to 165

Sequences of proteins named here, by UniProt entry; tags and fusion partners are left off.
UniProt P15170, whole entry: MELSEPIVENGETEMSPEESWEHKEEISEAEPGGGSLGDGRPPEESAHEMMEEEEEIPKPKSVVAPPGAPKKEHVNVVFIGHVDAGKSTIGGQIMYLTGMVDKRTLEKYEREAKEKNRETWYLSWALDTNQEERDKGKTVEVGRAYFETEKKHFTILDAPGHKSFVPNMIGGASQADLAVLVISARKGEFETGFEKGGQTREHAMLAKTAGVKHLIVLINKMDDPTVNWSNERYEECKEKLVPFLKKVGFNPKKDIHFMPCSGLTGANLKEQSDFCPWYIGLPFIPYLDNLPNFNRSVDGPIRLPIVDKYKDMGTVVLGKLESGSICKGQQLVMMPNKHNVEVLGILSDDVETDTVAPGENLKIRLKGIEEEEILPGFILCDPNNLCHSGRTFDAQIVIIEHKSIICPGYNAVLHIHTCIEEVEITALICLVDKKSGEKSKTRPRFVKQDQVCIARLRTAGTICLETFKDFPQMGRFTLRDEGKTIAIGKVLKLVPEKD
UniProt Q96SW2, whole entry: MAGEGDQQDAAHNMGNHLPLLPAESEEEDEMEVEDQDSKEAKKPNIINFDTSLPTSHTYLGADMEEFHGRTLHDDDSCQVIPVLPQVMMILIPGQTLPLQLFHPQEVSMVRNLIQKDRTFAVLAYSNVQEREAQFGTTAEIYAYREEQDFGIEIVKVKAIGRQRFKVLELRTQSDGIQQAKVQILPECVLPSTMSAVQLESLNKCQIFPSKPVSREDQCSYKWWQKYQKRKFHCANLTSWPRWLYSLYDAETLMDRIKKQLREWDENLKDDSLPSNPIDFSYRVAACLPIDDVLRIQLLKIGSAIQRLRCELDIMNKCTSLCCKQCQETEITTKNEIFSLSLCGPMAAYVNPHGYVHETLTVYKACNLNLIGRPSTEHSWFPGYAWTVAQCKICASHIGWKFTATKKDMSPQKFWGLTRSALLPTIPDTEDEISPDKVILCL
UniProt Q16531, whole entry partner: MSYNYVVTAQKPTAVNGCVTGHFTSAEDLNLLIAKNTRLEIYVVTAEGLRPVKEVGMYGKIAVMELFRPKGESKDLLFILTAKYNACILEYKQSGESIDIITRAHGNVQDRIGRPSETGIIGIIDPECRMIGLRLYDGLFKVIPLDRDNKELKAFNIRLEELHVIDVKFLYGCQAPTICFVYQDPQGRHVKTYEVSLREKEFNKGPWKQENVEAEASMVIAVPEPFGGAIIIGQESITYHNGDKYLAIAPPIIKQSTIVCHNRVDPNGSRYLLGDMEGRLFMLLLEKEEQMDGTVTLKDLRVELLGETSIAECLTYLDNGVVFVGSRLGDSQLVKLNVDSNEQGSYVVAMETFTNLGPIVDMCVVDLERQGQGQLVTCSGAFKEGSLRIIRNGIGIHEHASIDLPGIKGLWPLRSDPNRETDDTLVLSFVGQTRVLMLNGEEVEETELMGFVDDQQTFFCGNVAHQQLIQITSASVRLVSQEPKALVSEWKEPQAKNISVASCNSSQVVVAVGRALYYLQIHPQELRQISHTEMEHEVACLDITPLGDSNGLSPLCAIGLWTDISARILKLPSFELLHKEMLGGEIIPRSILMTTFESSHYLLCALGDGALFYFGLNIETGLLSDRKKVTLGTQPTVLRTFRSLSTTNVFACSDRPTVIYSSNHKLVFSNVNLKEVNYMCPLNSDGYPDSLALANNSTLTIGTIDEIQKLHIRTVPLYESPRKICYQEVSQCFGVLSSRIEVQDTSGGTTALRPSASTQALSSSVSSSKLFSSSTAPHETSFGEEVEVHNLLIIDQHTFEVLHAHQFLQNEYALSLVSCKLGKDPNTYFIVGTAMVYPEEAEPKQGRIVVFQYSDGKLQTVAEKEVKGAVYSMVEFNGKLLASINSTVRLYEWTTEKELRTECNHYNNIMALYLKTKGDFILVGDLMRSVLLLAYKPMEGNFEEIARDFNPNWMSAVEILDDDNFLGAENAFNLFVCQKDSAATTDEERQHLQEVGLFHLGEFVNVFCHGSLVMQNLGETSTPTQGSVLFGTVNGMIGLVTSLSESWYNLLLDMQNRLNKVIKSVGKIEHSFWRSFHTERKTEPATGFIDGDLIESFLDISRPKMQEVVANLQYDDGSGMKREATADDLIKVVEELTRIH

SMILES | DC50 [nM]
CN1CCC(COc2cc(Cl)cc(NC(=O)NCc3ccc4c(c3)C(=O)N(C3CCC(=O)NC3=O)C4)c2)C1 (stereo not shown) | > 300
CC(C)(C)c1ccc(NC(=O)NCc2ccc3c(c2)C(=O)N(C2CCC(=O)NC2=O)C3)cn1 (stereo not shown) | < 100
Cc1c(Cl)cc(NC(=O)NCc2ccc3c(c2)C(=O)N(C2CCC(=O)NC2=O)C3)cc1C12CC1CN(C)C2 (stereo not shown) | 100 to 300
CC(C)(C)c1ccc(NC(=O)NCc2ccc3c(c2)C(=O)N(C2CCC(=O)NC2=O)C3)cc1 (stereo not shown) | > 300
O=C1CCC(N2Cc3ccc(CNC(=O)Nc4cc(OC(F)(F)F)ccn4)cc3C2=O)C(=O)N1 (stereo not shown) | > 300
CN1CCC(Oc2cc(Cl)cc(NC(=O)NCc3ccc4c(c3)C(=O)N(C3CCC(=O)NC3=O)C4)c2)C1 (stereo not shown) | > 300
O=C1CCC(N2Cc3ccc(CNC(=O)Nc4cc(F)cc(OC(F)(F)F)c4)cc3C2=O)C(=O)N1 (stereo not shown) | > 300

Source: patent US20240216355A1, “PHARMACEUTICAL COMPOSITIONS FOR USE IN THE PREVENTION AND TREATMENT OF A DISEASE OR DISORDER CAUSED BY OR ASSOCIATED WITH ONE OR MORE PREMATURE TERMINATION CODONS” (Monte Rosa Therapeutics, Inc., priority 2021, published 2024)
